Data taken from PubChem BioAssay (NCATS).
This is a selection; strong and weak results do not stand in their true shares. Inconclusive results are not listed. The source made the active and inactive calls. Calls follow the shape of the dose curve; as a rule, active = well fitted curve in the direction sought with a large enough effect; inconclusive = small, poorly fitted or top-dose-only effect, or another doubt; inactive = no such curve, though single readings can be large; an effect the other way counts as inactive or inconclusive.

The chains behind the UniProt entries cited, without tags or fusion partners. Where a name states a change or a piece, a line headed by the entry shows the natural chain unless it says otherwise.
UniProt A8B2U2: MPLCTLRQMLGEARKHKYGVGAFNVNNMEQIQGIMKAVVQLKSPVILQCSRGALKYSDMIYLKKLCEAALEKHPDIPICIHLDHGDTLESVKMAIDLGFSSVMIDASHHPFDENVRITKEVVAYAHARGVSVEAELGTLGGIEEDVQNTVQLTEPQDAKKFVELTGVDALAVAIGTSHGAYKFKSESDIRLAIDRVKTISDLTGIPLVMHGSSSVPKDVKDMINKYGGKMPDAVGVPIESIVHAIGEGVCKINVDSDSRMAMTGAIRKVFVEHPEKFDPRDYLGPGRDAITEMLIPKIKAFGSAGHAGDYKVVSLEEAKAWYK
UniProt P00883: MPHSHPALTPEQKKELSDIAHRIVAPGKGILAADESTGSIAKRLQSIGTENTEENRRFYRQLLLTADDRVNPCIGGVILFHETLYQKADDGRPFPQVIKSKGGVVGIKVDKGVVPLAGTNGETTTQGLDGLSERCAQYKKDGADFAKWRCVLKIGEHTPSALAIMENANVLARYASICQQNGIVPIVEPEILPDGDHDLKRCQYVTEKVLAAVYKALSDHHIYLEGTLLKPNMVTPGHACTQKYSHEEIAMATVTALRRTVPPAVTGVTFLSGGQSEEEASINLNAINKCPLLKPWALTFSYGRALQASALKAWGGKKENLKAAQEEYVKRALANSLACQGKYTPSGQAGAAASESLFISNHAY

How the values were obtained:
[1] = qHTS Assay for Inhibitors of Fructose-1,6-bisphosphate Aldolase from Giardia Lamblia: Giardia lamblia growth inhibition (AID 2785); conditions: Giardia lamblia trophozoite growth inhibition; at 38.3 µM (top of the series); also: nearly all actives have a fitted effect of over 70% in size
Method in brief: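 Whole-parasite growth test: Giardia WB trophozoites in TYI-S-33 (pH 7.0), 100 per well, incubated 48 h at 37C with compound. ATP content was read by ATPlite luminescence.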

[2] = qHTS Assay for Inhibitors of Fructose-1,6-bisphosphate Aldolase from Giardia Lamblia: Mammalian cellular toxicity (AID 2786); conditions: mammalian cell viability counter-screen; at 57.5 µM (top of the series);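 also: compound exposure lasted 48 h before reading; nearly all actives have a fitted effect of over 60% in size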
Method in brief: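 Mammalian cytotoxicity surrogate: Chinese hamster ovary cells exposed to compound for 48 h at 37 °C. Cellular ATP then measured with ATPlite reagent, 20 min incubation.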

[3] = molecular target: Fructose-bisphosphate aldolase (Giardia intestinalis (strain ATCC 50803 / WB clone C6)) (UniProt A8B2U2); experiment: qHTS Assay for Inhibitors of Fructose-1,6-bisphosphate Aldolase from Giardia Lamblia: Primary screen confirmation (AID 2787); conditions: purified Giardia aldolase enzyme activity; at 57.5 µM (top of the series);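 also: aldolase product measured through coupled diaphorase step turning resazurin into fluorescent resorufin; nearly all actives have a fitted effect of over 45% in size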
Method in brief: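 Confirmation of primary hits by qHTS up to 57.5 uM final compound. Enzyme at 40 nM with 30 uM ZnCl2, 10 min RT pre-incubation, then substrate/coupling/resorufin-forming detection mix for 20 min before fluorescence read at 525/598 nm.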

[4] = molecular target: Fructose-bisphosphate aldolase A (Oryctolagus cuniculus) (UniProt P00883); experiment: qHTS Assay for Inhibitors of Fructose-1,6-bisphosphate Aldolase from Giardia Lamblia: Rabbit FBPA Selectivity (AID 2794); conditions: Rabbit muscle FBPA enzyme inhibition, selectivity counter-screen; at 57.5 µM (top of the series); also: nearly all actives have a fitted effect of over 60% in size
Method in brief: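 Selectivity was assessed on rabbit Class I enzyme by qHTS. Product formation was detected by AmpLite Red fluorescence (525/598 nm) after a 20 min RT reaction started with substrate, following 10 min compound preincubation at up to 57.5 uM final.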

[5] = qHTS Assay for Inhibitors of Fructose-1,6-bisphosphate Aldolase from Giardia Lamblia: Coupling assay counterscreen confirmation (AID 2795); conditions: GAPDH coupling enzyme counterscreen, biochemical; at 57.5 µM (top of the series); also: nearly all actives have a fitted effect of over 55% in size
Method in brief: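 Readings at 525 nm excitation and 598 nm emission follow a two-step room-temperature protocol: 10 min of compound (up to 57.5 uM final) with coupling enzyme reagent, then 20 min with substrate and AmpLite Red detection reagent.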
% is scaled to controls: 0 for no effect and ±100 for the full control effect.

O=C(NC(Sc1ccncn1)C(Cl)(Cl)Cl)c1ccccc1 (stereo not given)
inactive: activity change, negative = inhibition [1] -12% | viability change, negative = toxicity [2] 6.81% | activity change, negative = inhibition [3] 1.59% | activity, negative = inhibition [4] -1.15% | activity change, negative = inhibition [5] -3.09%
